Most compounds without a hit are left out; they make up all but 2.2% or so of the library.
miR-21 reporter: raises the signal of a miR-21 reporter | Potency, µM (highest dose often 38.3 µM), without a hit: at the top dose reporter change, positive = more light | HeLa miR-21 FLuc reporter, luciferase, 48 h | 340,000 tested, under 10 active; active = well fitted rising curve with a large enough effect; inconclusive = small, poorly fitted or top-dose-only effect; inactive = no such curve, though single readings can be large or run the other way;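 further: % of control where 0% means no effect; miR-21 action dims this reporter so a rising signal means less miR-21 action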
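HeLa cells endogenously expressing miR-21, stably carrying CMV-driven firefly luciferase with a downstream miR-21 binding site, 2000 cells/well. Titrations up to approximately 40 uM, 48 hours; luciferase luminescence read.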
PI4K2A inh: PI4K2A (human) kinase inhibition; AID 1346378; Q9BTU6; 420,000 compounds, 0.13% hits; activity change, negative = inhibition, % at 76.9 µM; purified PI4K2A, ADP-Glo luminescence, 1 h; active compounds read low; in the data active = activity change below about -50%; inconclusive = mostly about -30% to -49%;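 note: -100% = wells without enzyme as full effect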
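In this quantitative HTS, ADP production by PI4K2A was quantified luminescently after 1 h at ambient temperature; 100 microM adenosine served as plate-quality control.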
Nrf2 inh: inhibitors of Nrf2 signaling; A549 ARE-Fluc reporter, luciferase luminescence, 18-24 h; Potency, µM (top dose mostly 46 µM), for inactives: top-dose activity change, negative = inhibition, hits mostly inhibitors; 360,000 compounds, 2.1% hits; note: potency is the fitted concentration of half-maximal effect; % is set by controls: 0 for no effect and ±100 for the full control effect; nearly all actives have a fitted effect of over 60% in size
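Nrf2 function is reported as luminescence of an ARE-controlled luciferase in A549 cells. Compounds were tested at several concentrations, and a CellTiter-Fluor read on the same wells flagged cytotoxicity.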
GALK inh: blocks human galactokinase activity | P51570 | Potency, µM (doses to about 57.5 µM), without a hit: at the highest dose activity change, negative = inhibition, usual class: inhibitors | 270,000 compounds, 0.007% hits | Purified GALK, Kinase-Glo residual ATP luminescence; note: potency is the fitted concentration of half-maximal effect; % is set by controls: 0 for no effect and ±100 for the full control effect
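Galactose (100 uM) and ATP (35 uM) were turned over by 5 nM GALK for 1 h at RT. Kinase-Glo Plus then converted the remaining ATP into a luminescent signal.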
A549 tox: A549 cytotoxicity, counter-screen for Nrf2 inhibitors; A549 ARE-Fluc cells, CellTiter-Fluor viability, 18-24 h; Potency, µM (highest dose often 46 µM), inactives show top-dose activity change, negative = cytotoxicity, usual class: inhibitors; 390,000 compounds, 0.16% hits; AID 504648; note: potency is the fitted concentration of half-maximal effect; % is set by controls: 0 for no effect and ±100 for the full control effect
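A549 ARE-Fluc cells in 5% FBS OPTI-MEM, 5000 cells/well, rested 2 h then exposed to compounds in concentration-response for 18-24 h at 37 °C. Viability by CellTiter-Fluor fluorescence (Ex 405/Em 525) after 30 min; luciferase luminescence (BugLite, 15 min, RT) read afterwards.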
Nrf2 activator: activates Nrf2 signaling; Potency, µM (top dose mostly 46.1 µM), without a hit: at the top dose activation, hits mostly activators; 410,000 compounds, 0.31% hits; AREc32 ARE-luciferase reporter (MCF7-derived line), luminescence, 24 h; note: potency is the fitted concentration of half-maximal effect; % of control where 0% means no effect; nearly all actives have a fitted effect of over 65% in size
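Reporter line AREc32 (ARE-Fluc), seeded overnight in OPTI-MEM with 5% FBS; compound pin-transferred, 24 hr at 37 deg C, 5% CO2; luminescent read-out.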
Starred values were filed as active, the others as inactive; ? = inconclusive; nt = no result given; [ ] = dose if it differs, or a comment. Unless noted, calls come from the whole dose curve; as a rule, active = well fitted curve in the direction sought with a large enough effect; inconclusive = small, poorly fitted or top-dose-only effect, or another doubt; inactive = no such curve, though single readings can be large; an effect the other way counts as inactive or inconclusive.

No.	compound	miR-21 reporter	PI4K2A inh	Nrf2 inh
1	Cc1cccc(N2CCN(C(c3cccs3)c3nnnn3C(C)(C)C)CC2)c1C (stereo not drawn)	1%	-3	-5%
2	COc1cccc(NC(=O)Nc2nc3ncccn3c2-c2ccc(F)c(F)c2)c1	nt	-1	nt
3	CCCSc1ccc2nc(-c3ccccc3)cn2c1	?	-68*	?
4	CCCCSc1ccc2nc(-c3ccc(C#N)cc3)cn2c1	-16%	0	?
5	N#Cc1ccc(NC(=O)Nc2ccc(Cl)cc2)cc1	15%	1	18µM*
6	COc1ccc(Cn2nnnc2C(C(C)C)N2CCc3ccccc32)cc1 (stereo not drawn)	-8%	2	16µM*
7	CCOC(=O)C1=C(C)NC2=C(C(=O)c3ccccc32)C1c1ccc([N+](=O)[O-])o1 (stereo not drawn)	11%	-2	1%
8	O=S(=O)(Nc1cc(O)cc2cccnc12)c1ccc(Cl)s1	nt	nt	16%
9	O=C(/C=C/Nc1ccc(F)cc1)c1cccs1	nt	-13	?
10	O=C(/C=C/Nc1ccc(F)c(F)c1)c1cccs1	-56%	-10	?

No.	GALK inh	A549 tox	Nrf2 activator
1	1%	6%	0%
2	nt	nt	nt
3	10%	16%	-2%[9.22 µM]
4	nt	0%	3%
5	1%	?	2%
6	2%	-9%	-1%
7	4%	-15%	14µM*
8	nt	-2%	nt
9	nt	-9%	6.3µM*
10	4%	0%	8.9µM*

New compounds follow:
No.	compound	miR-21 reporter	PI4K2A inh	Nrf2 inh
11	COC(=O)[C@]12C[C@H](CC(=O)N3CCN(C(=O)C4CC4)CC3)C(=O)N(Cc3ccco3)C1=C[C@H](C(C)C)O[C@@H]2C1CC1	nt	-2	nt
12	O=C(Nc1ccccn1)c1csc2c1CCCC2	-40%	3	?
13	O=C(Nc1ccccc1C(=O)N/N=C/c1ccco1)c1ccccc1	-7%	1	4%
14	O=C(N/N=C\c1ccco1)Nc1cccc(Cl)c1	-75%	5	?
15	O=C(Nc1ccccc1C(=O)N/N=C/c1ccco1)c1ccc(Cl)cc1	-18%	-2	2%
16	O=C(Nc1ccccc1C(=O)N/N=C/c1ccco1)c1ccc(F)cc1	-18%	-15	3%
17	O=C(NCCc1nc2ccccc2n1C/C=C/c1ccccc1)C1CCCCC1	nt	-4	nt
18	CSc1ccc(C=Nn2c(-c3cc(C)[nH]n3)n[nH]c2=S)cc1	nt	0	nt
19	C=CCN1C(C(=O)OC)CN(Cc2cn(Cc3ccc(Cl)cc3)nn2)CCS1(=O)=O (stereo not drawn)	nt	-8	nt
20	Fc1cccc(Cl)c1Cc1noc(/C=C/c2ccccc2)n1	-46%	-1	?

No.	GALK inh	A549 tox	Nrf2 activator
11	nt	nt	nt
12	0%	11%	5µM*
13	4%	1%	3.5µM*
14	-3%	-8%	5µM*
15	0%	19%	?
16	nt	8%	2.8µM*
17	nt	nt	nt
18	nt	nt	nt
19	nt	nt	nt
20	1%	0%	16µM*

Compound profiles, from the list above:
CSc1ccc(C=Nn2c(-c3cc(C)[nH]n3)n[nH]c2=S)cc1 across the screens: miR-21 reporter = nt; PI4K2A inh = 0; Nrf2 inh = nt; GALK inh = nt; A549 tox = nt; Nrf2 activator = nt
O=C(N/N=C\c1ccco1)Nc1cccc(Cl)c1 across the screens: miR-21 reporter = -75%; PI4K2A inh = 5; Nrf2 inh = ?; GALK inh = -3%; A549 tox = -8%; Nrf2 activator = 5µM*

Remaining list, next part.
No.	compound	miR-21 reporter	PI4K2A inh	Nrf2 inh
21	Clc1cccc(Cl)c1CSc1nnc(/C=C/c2ccccc2)o1	-19%	-1	nt
22	N#C/C(=C\c1ccc(O)c([N+](=O)[O-])c1)c1nc2ccccc2s1	-8%	-7	?
23	COc1cc(/C=C(\C#N)c2nc3ccccc3s2)cc([N+](=O)[O-])c1O	-5%	-1	?
24	COc1ccc(-c2csc(/C(C#N)=C\c3ccc(O)c([N+](=O)[O-])c3)n2)cc1OC	-21%	-5	-22%
25	COc1cccc(C2c3c(ncn(-c4ccc(C(C)(C)C)cc4)c3=N)Oc3ccc4ccccc4c32)c1 (stereo not drawn)	nt	nt	?
26	COc1cc(C(=O)NC2CCCCN(Cc3ccc(Cl)cc3)C2=O)cc(OC)c1OC (stereo not drawn)	nt	2	nt
27	N#CC1(c2ccc(F)cc2)CCC(=O)CC1	nt	2	nt
28	S=C(NC1CC2CCC1C2)N1CCN(c2cccc(Cl)c2)CC1 (stereo not drawn)	1%	-2	16µM*

No.	GALK inh	A549 tox	Nrf2 activator
21	-3%	2%	1%
22	-9%	15µM*	8%
23	-2%	21µM*	1%
24	2%	-14%	0%
25	nt	-6%	nt
26	nt	nt	nt
27	nt	nt	nt
28	6%	-10%	3%

Screening results: PubChem BioAssay, National Center for Advancing Translational Sciences (NCATS)
